Test results reported in PMC8939909 (Journal of medicinal chemistry, 2021).

Experiments:
[1] = test system: panel of PTPs (class I tyrosine-specific and dual-specific PTPs)
[2] = target: T1, human LMPTP-A (Homo sapiens, UniProt P24666); assay: LMPTP biochemical inhibition assay; details: nitrogen incorporation in the benzyl ring
T1 sequence (P24666 1-158): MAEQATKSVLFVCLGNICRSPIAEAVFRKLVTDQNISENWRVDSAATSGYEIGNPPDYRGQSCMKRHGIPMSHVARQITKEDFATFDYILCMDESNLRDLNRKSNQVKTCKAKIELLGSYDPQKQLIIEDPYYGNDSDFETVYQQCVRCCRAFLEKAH

SMILES	selectivity for LMPTP over all other PTPs tested [1]	fold boost in potency (LMPTP) [2]	selectivity for LMPTP, in words [1]
Cc1ccccc1-c1nc2c(N)ncn(Cc3c(Cl)cccc3Cl)c-2n1 [5d]	> 1,000 X		
Nc1ncn(Cc2c(Cl)cncc2Cl)c2ncnc1-2 [6g]		3 fold	high selectivity
